# Test results reported in patent US10952961B2, “Implants and constructs including hollow fibers” (priority 2015, dated 2021).
# Experiment: Saturated drug solutions in normal saline used to fill hollow fibers
# Type: physicochemical
compound,measurement,value
O=C(O)c1cn(C2CC2)c2cc(N3CCNCC3)c(F)cc2c1=O [ciprofloxacin],concentration of saturated solution,30000 µg/mL
